## Measured affinities in a library of Ab-14 light chain variants

Data: MIT Lincoln Laboratory AlphaSeq set, Engelhart et al. 2022, doi:10.1038/s41597-022-01779-4, as distributed in FLAb.

Target peptide (SARS-CoV-2 spike, HR2 region): PDVDLGDISGINAS

The variants keep the heavy chain, the linker and the frameworks of Ab-14 (scFv order VH, a (GGGGS)3 linker, VL).
VH: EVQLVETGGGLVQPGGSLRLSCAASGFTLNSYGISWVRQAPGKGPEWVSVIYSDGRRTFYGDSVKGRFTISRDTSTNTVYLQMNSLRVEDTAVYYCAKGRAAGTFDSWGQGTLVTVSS
VL: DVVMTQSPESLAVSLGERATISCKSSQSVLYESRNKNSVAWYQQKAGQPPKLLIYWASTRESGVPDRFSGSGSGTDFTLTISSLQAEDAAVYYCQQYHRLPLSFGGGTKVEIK

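The parent was found by panning a naive human phage display library on the peptide. In library AAYL50, one, two or three CDR residues were substituted; doubles and triples were drawn at random. In AlphaSeq, yeast of one mating type display the scFv and yeast of the other type display the target. After mating in shaken culture at 30 °C for 16 h, diploids were selected and their barcode pairs sequenced. Each replicate has its own calibration line, from reference interactions of the BCL2 family. Each pool was mated in three replicate cultures.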

The parent's light chain CDRs are KSSQSVLYESRNKNSVA, WASTRES, QQYHRLPLS; each variant's own CDRs replace them letter for letter. Every variant below is changed at N37 of the VL (sequential numbering). Kd is apparent (estimated from mating counts) and averaged on the log scale over replicates with a signal. Smaller is tighter. A pair that was not seen in any replicate is written "no signal"; this usually means weak binding, but a binder can also be missed. The list is sorted by this average, lowest first, undetected variants last.

CDR-L1,CDR-L2,CDR-L3,Kd,detected,control signals
KSSQSVLYESRNKISVA,WASIRES,QQLHRLPLS,3.2 nM,3/3,2/9
KSSQMLLYESRNKASVA,WASTRES,QQYHRLPLS,6.4 nM,3/3,1/9
KSSQSVQYESRNKFSVA,WASTREV,QQYHRLPLS,11 nM,3/3,0/9
KCSQSVLYYSRNKASVA,WASTRES,QQYHRLPLS,21 nM,3/3,4/9
KSSQSVLYESRNKASVA,WASTRES,QQYHRLPLS,24 nM,3/3,5/9
KSSTSVLYESRNKASVA,WASHRES,QQYHRLPLS,33 nM,3/3,4/9
KSSQSVLYESRNKRSVA,WASTRES,QQYHRLPLS,34 nM,3/3,4/9
KSGQSVLYESRNKTSVA,WASTRES,QQYHRLPFS,37 nM,3/3,0/9
NSSQSVLYESRNKCSVA,WGSTRES,QQYHRLPLS,39 nM,3/3,1/9
KSSQSVLYESRNKQSVA,WASYRES,QQYHRLPLS,45 nM,3/3,0/9
HSSQSTLYESRNKQSVA,WASTRES,QQYHRLPLS,48 nM,3/3,0/9
KSQQSVLYESRNKESVA,WASTRNS,QQYHRLPLS,50 nM,3/3,1/9
KSSQSVLYESRNKESVA,WASTRES,QQYHRLPLS,64 nM,3/3,7/9
KSSFSVLYESRNKHSVA,WASTRES,QQYHRLPLF,100 nM,3/3,6/9
KSSQSVRYESQNKISVA,WASTRES,QQYHRLPLS,120 nM,3/3,0/9
KSSQSVKYESRNLKSVA,WASTRES,QQYHRLPLS,120 nM,3/3,0/9
KSSQSWLYESRNKVSVA,WAGTRES,QQYHRLPLS,120 nM,3/3,1/9
KSNQSVLYESRNKESVA,WASTRES,QQYHRLPLS,400 nM,3/3,4/9
ASSQSVLYESRNKKSVA,WASTRES,QQYHRLPGS,1.0 µM,3/3,1/9
KSSGSVLYESRNKTSVA,WASDRES,QQYHRLPLS,1.6 µM,2/3,4/9
KSSQEVLYESRNKKSVA,WASTRES,QLYHRLPLS,3.5 µM,3/3,3/9
KSSQSVLYESRNKFSVV,RASTRES,QQYHRLPLS,6.7 µM,2/3,3/9
KSSQSVLYESRNKPSYA,WASTRES,QQYHRLRLS,7.0 µM,1/3,1/9
KSSQSVLYESRNKRSVA,WASTAES,QQYHRLPLS,7.1 µM,2/3,1/9
KSSQSVLYESRNKYSVA,WAFTRES,QQYHRKPLS,11 µM,2/3,2/9
KSSQSVIYESRNKPSVA,WASTRES,VQYHRLPLS,14 µM,2/3,5/9
KSSQSVLYESRNKQSVA,WACTRES,QQYHRLPQS,17 µM,2/3,3/9
KSSQSVLYESRNKQSVA,WASTRES,QQYHRQQLS,20 µM,2/3,1/9
KSSQSVLYESRNKMSVA,WASTPES,QIYHRLPLS,32 µM,3/3,4/9
KSSQSVLYESRNKGSVA,WASTRES,QQYHRCPLC,44 µM,1/3,1/9
KSSQSVLYESRNKSSVA,WNSTRES,QQYHRLPLS,250 µM,2/3,3/9
KSSQSVLYEQRNKVSVA,WASTRKS,QQYHRLPLS,780 µM,1/3,3/9
KSSQSVLYESRNKISGA,WASTRPS,QQYHRLPLS,no signal,0/3,0/9
SSSQSVLYESRNKGSVA,WASFRES,QQYHRLPLS,no signal,0/3,1/9
KSSSIVLYESRNKGSVA,WASTRES,QQYHRLPLS,no signal,0/3,0/9
KSSQSVLYESRNKYSVA,WASTIES,QQYHRLPLS,no signal,0/3,0/9
KSSQSVLYESRNKVFVA,WQSTRES,QQYHRLPLS,no signal,0/3,0/9
KSSQSVLYESRNKDSVA,WASTRER,QQKHRLPLS,no signal,0/3,1/9
KSSQSVLYTSRNKTSVA,WASTRES,QQVHRLPLS,no signal,0/3,1/9
KSSQSVLYESRNKHSVA,WASTRES,IQYHRKPLS,no signal,0/3,1/9
KSSQSVLYESRNKVHVA,WFSTRES,QQYHRLPLS,no signal,0/3,2/9
KSSQSVLYEYRNKRSPA,WASTRES,QQYHRLPLS,no signal,0/3,1/9
KSSQSTLYESRNCMSVA,WASTRES,QQYHRLPLS,no signal,0/3,0/9
KSSQSVLYWSRTKISVA,WASTRES,QQYHRLPLS,no signal,0/3,0/9
LHSQSVLYESRNKQSVA,WASTRES,QQYHRLPLS,no signal,0/3,0/9
KSLQSVLYESRNKCSVA,WASTRES,QQYHRGPLS,no signal,0/3,0/9
KSSQSVLYESRNFQSVA,WASTRES,QQYHRLDLS,no signal,0/3,0/9

For reference, the parent read 4.4 nM as the reference entry and 48 nM as a member of this library. Empty control strains, which show no peptide, gave a signal in 18% of pairings with library AAYL50; the median was 15 µM and 95% of these signals were weaker than 970 nM. No background was subtracted. Also given: how often the same scFv was detected with the empty control strains.